From US11414387B2, “Oxoacridinyl acetic acid derivatives and methods of use” (Stingthera, Inc., priority 2017, dated 2022)
Where two headings read alike, the source gives them in different places.

Sequences of proteins named here, by UniProt entry; tags and fusion partners are left off. Residues count along the entry.
UniProt Q86WV6, 140-379 H232R limits assumed: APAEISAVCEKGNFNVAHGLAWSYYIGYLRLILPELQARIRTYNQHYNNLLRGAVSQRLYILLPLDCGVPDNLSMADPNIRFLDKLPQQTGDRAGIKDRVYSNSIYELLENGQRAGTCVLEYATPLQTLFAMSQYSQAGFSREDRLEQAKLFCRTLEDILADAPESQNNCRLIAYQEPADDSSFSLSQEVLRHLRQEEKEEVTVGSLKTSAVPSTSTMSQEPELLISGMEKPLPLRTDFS
UniProt Q86WV6, 135-379 limits assumed: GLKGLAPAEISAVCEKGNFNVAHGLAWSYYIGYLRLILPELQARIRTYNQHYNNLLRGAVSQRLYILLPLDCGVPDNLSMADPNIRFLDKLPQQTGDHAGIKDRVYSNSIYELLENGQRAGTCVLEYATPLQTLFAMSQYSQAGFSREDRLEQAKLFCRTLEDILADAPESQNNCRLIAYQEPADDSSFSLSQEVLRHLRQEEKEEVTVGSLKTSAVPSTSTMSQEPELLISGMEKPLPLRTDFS
UniProt Q86WV6, whole entry H232R: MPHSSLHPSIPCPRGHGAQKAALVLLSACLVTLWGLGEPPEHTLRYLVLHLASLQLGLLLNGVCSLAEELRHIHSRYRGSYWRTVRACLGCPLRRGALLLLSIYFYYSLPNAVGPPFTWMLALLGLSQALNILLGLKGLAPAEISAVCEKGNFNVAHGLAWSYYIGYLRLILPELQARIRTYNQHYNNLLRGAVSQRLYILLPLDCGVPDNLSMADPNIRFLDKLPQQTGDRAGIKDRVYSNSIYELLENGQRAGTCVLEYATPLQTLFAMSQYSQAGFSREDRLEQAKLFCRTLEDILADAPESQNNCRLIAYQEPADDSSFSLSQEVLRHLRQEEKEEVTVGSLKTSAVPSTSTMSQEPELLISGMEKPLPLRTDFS
UniProt Q3TBT3, 134-378 limits assumed: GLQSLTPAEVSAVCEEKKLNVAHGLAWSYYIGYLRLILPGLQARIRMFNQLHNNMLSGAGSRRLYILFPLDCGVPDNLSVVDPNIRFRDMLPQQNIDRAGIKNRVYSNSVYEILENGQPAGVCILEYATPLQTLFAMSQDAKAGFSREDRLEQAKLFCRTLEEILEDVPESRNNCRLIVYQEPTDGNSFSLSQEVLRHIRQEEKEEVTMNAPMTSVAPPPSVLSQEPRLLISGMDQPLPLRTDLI

Experiments:
STING protein = STING protein (Homo sapiens (Human), UniProt Q86WV6, H232R); experiment: Cell based reporter assay of IRF activation (IRF-luciferase), THP1-dual-KI R232; conditions: THP1-dual-KI R232 cells, HPE 100 μM 2′3′cGAMP
hSTING-WT = hSTING-WT (Homo sapiens (Human), UniProt Q86WV6, H232R); experiment: Radiometric filtration binding competition assay, hSTING-WT; conditions: wild-type human STING
hSTING-R232 = hSTING-R232 (Homo sapiens (Human), UniProt Q86WV6, H232R); experiment: STING differential scanning fluorimetry (DSF) assay, WT human STING; conditions: WT (R232) human STING aa140-379, net shift in melting temperature
hSTING-CTD = hSTING-CTD (Homo sapiens (Human), UniProt Q86WV6); experiment: Human STING protein FP competition concentration response assay; conditions: read-out: hSTING IC50
mSTING-CTD = mSTING-CTD (Mus musculus (Mouse), UniProt Q3TBT3); experiment: Mouse STING protein FP competition concentration response assay; conditions: read-out: mSTING IC50

Row | WT_DSF_hSWAT Tm Shift (° C.) (hSTING-R232) | IC50 (hSTING-CTD) [µM] | SMILES | other results
1 | C (“C” = 2-7° C,) |  | COc1c(Cl)ccc2c(=O)c3ccc(N)cc3n(CC(=O)O)c12 | THP1-dual-KI R232_IRF(Luciferase)_Activity Maximum measured (%) (STING protein): A (“A” < 5%); IC50 (hSTING-WT; read-out: WT-hSWAT IC50, WT_FBA_HIS-SUMO-hSWAT, filtration binding vs H3 2′3′cGAMP): 100 to 300 µM
2 |  | 500 to 1000 | O=C(O)Cn1c2ccccc2c(=O)c2cc(C3CCCCC3)ccc21 | IC50 (mSTING-CTD): > 100 µM
3 | D (“D” > 7° C.) |  | CCSc1c(Cl)ccc2c(=O)c3ccc(C(C)(C)C)cc3n(CC(=O)O)c12 | IC50 (hSTING-WT; read-out: WT-hSWAT IC50 (μM) (WT_FBA_HIS-SUMO-hSWAT IC50), filtration binding assay, H3 labeled 2′3′cGAMP probe): < 20 µM
4 |  | 500 to 1000 | Cc1ccc2c(c1)N(CC(=O)O)c1c(ccc(Cl)c1Cl)C2 | 
